Protein sequences, listed by entry. Tags and fused reporters are not part of them.
UniProt Q92847, whole entry: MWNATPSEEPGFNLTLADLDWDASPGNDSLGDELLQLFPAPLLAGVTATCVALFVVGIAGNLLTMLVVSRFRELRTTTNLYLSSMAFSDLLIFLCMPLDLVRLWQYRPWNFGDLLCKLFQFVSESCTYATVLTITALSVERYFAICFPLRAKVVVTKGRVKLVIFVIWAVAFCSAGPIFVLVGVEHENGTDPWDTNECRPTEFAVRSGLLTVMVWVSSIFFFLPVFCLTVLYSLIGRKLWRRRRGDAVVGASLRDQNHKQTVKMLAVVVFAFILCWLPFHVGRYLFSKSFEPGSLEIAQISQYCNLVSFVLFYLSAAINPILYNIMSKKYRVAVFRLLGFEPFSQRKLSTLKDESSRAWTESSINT

According to patent publication US20180110824A1:

Biological target: human growth hormone secretagogue receptor (hGHS-R1a) (Homo sapiens, UniProt Q92847)
Assay: Competitive radioligand binding assay (ghrelin receptor), [125I]-ghrelin displacement on GHS-R/HEK 293 membranes
Conditions: Binding activity at the human ghrelin receptor, [125I]-ghrelin displacement

Ki [nM] | Structure (SMILES)
1000 to 10000 | CC(C)C[C@@H]1NCCOc2cccnc2CCCNC(=O)[C@H](Cc2ccccc2)NC(=O)C2(CCCC2)NC1=O
1000 to 10000 | O=C1CNCCOc2ccccc2CCCNC(=O)[C@H](Cc2ccccc2)NC(=O)C2(CCCC2)N1
> 10000 | CC(C)C[C@@H]1NCc2ccc(cc2)CCNC(=O)[C@H](Cc2ccccc2)NC(=O)C2(CCCC2)NC1=O
> 10000 | CC(C)C[C@@H]1NCCC#CCCNC(=O)[C@H](Cc2ccccc2)NC(=O)C2(CCCC2)NC1=O
> 10000 | CCC[C@@H]1NCc2cccc(c2)CCNC(=O)[C@@H](Cc2ccccc2)NC(=O)CN(C)C1=O
> 10000 | CCOC(=O)CC[C@@H]1NC(=O)C2(CCCC2)NC(=O)[C@H](CC(C)C)NCCOc2ccccc2/C=C/CNC1=O
> 10000 | CC(C)CC1NCc2cccc(c2)CCNC(=O)C(Cc2ccccc2)NC(=O)C2(CCCC2)NC1=O (stereo not shown)
100 to 1000 | CC[C@H](C)[C@@H]1NCCOc2ccccc2CCCNC(=O)[C@@H](Cc2ccccc2)NC(=O)[C@H](C(C)C)N(C)C1=O
> 10000 | CCC[C@@H]1NCCC#CCCNC(=O)[C@@H](Cc2ccccc2)NC(=O)CN(C)C1=O
100 to 1000 | CCC(C)[C@@H]1NCCOc2ccccc2CCCNC(=O)[C@@H](Cc2ccccc2)NC(=O)[C@H](C(C)CC)N(C)C1=O (stereo partly shown)
10 to 100 | CC[C@@H]1NCCOc2ccccc2/C=C/CNC(=O)[C@H](Cc2ccccc2)NC(=O)C2(CCCC2)NC1=O
> 10000 | CC(C)C[C@@H]1NCCOc2ccccc2CCCNC(=O)CNC(=O)C2(CCCC2)NC1=O
> 10000 | CC(=O)N(CCOc1ccccc1CCCN)[C@@H](CC(C)C)C(=O)NC1(C(=O)N[C@@H](Cc2ccccc2)C(N)=O)CCCC1
100 to 1000 | CCC1NCCOc2ccccc2/C=C/CNC(=O)C(Cc2ccccc2)NC(=O)C2(CCCC2)NC1=O (stereo not shown)
> 1000 | CCC(C)C1NCCOc2ccccc2CCCNC(=O)C(Cc2ccccc2)NC(=O)C(C(C)C)N(C)C1=O (stereo not shown)
1000 to 10000 | CCC[C@@H]1NCc2cccc(c2)CNC(=O)[C@@H](Cc2ccccc2)NC(=O)CN(C)C1=O
> 1000 | CCCC1C(=O)NC(Cc2ccccc2)C(=O)NCCCc2ccccc2OCCNC(C(C)CC)C(=O)N1C (stereo not shown)
> 10000 | CCC[C@@H](C(=O)N(C)CC(=O)N[C@H](Cc1ccccc1)C(N)=O)N(CCOc1ccccc1CCCN)C(C)=O
100 to 1000 | CC(C)C1NCCOc2ccccc2/C=C/CNC(=O)C(Cc2ccccc2)NC(=O)C(C)N(C)C1=O (stereo not shown)
> 10000 | CC(C)C[C@@H]1NCC/C=C/CCNC(=O)[C@H](Cc2ccccc2)NC(=O)C2(CCCC2)NC1=O
> 10000 | CCC(C)C1NCCOc2ccccc2CCCNC(=O)C(Cc2ccccc2)NC(=O)C(C(C)CC)N(C)C1=O (stereo not shown)
> 1000 | CCC[C@H]1C(=O)N[C@H](Cc2ccccc2)C(=O)NCCCc2ccccc2OCCN[C@@H](C(C)CC)C(=O)N1C (stereo partly shown)
0.1 to 10 | CC(C)[C@@H]1NCCOc2ccccc2/C=C/CNC(=O)[C@H](Cc2ccccc2)NC(=O)[C@@H](C)N(C)C1=O

Same assay, conditions: Binding activity at the human ghrelin receptor, [125I]-ghrelin displacement; tested form: formate

Ki [nM] | Structure (SMILES)
100 to 1000 | CC(C)C[C@@H]1NCCOc2ccccc2CCCNC(=O)[C@H](Cc2ccccc2)NC(=O)C2(CCCC2)NC1=O

Same assay, conditions: Table 3B; binding activity at the human ghrelin receptor

Ki [nM] | Structure (SMILES)
100 to 1000 | CC[C@H](C)[C@@H]1NCCOc2ccccc2/C=C/CNC(=O)[C@H](COCc2ccccc2)NC(=O)C(C)(C)NC1=O
10 to 100 | CC[C@H](C)[C@@H]1NCCCc2ccccc2/C=C/CNC(=O)[C@H](Cc2cccc(Cl)c2)NC(=O)C2(CCCC2)NC1=O
100 to 1000 | CCC(C)C1NCCOc2ccccc2/C=C/CNC(=O)C(Cc2cccc(C(F)(F)F)c2)NC(=O)C2(CCCC2)NC1=O (stereo not shown)
10 to 100 | CCC(C)C1NCCCc2ccccc2C=CCNC(=O)C(Cc2ccc(F)cc2)NC(=O)C(C)N(C)C1=O (stereo not shown)
10 to 100 | CCC(C)C1NCC(C)Oc2ccccc2CCCNC(=O)C(Cc2cccc(Cl)c2)NC(=O)C2(CCCC2)NC1=O (single isomer, unassigned) [368b]
0.1 to 10 | CC[C@H](C)[C@@H]1NCCOc2ccccc2/C=C/CNC(=O)[C@H](Cc2ccc(Cl)c(Cl)c2)NC(=O)C2(CCCC2)NC1=O
0.1 to 10 | CCC(C)C1NCC(C)Oc2ccccc2CCCNC(=O)C(Cc2cccc(Cl)c2)NC(=O)C2(CCCC2)NC1=O (single isomer, unassigned) [399b]
10 to 100 | CC[C@H](C)[C@@H]1NCCOc2ccccc2/C=C/CNC(=O)[C@H](Cc2cccc(Cl)c2)NC(=O)C2(CCOC2)NC1=O (stereo partly shown)
10 to 100 | CC1C(=O)NC(Cc2ccc(F)cc2)C(=O)NCCCc2ncccc2OCCNC(C2CC2)C(=O)N1C (stereo not shown)
100 to 1000 | CC[C@H](C)[C@@H]1NCCCCC=CCCNC(=O)[C@H](Cc2cccc(Cl)c2)NC(=O)C2(CCCC2)NC1=O
100 to 1000 | CCC(C)C1NCCOc2ccccc2/C=C/CNC(=O)C(Cc2ccc(F)c(F)c2)NC(=O)C2(CCCC2)NC1=O (stereo not shown)
100 to 1000 | CC[C@H](C)[C@@H]1NCCOc2ccccc2CCCNC(=O)[C@@H](Cc2c[nH]cn2)NC(=O)[C@@H](C)N(C)C1=O
100 to 1000 | CCC(C)C1NCCOc2ccccc2/C=C/CNC(=O)C(Cc2cc(F)cc(F)c2)NC(=O)C2(CCCC2)NC1=O (stereo not shown)
10 to 100 | CC[C@H](C)[C@@H]1NCCOc2ccccc2CCCNC(=O)[C@H](Cc2cccc(Cl)c2)NC(=O)C2(CCNC2)NC1=O (stereo partly shown)
10 to 100 | CC[C@H](C)[C@@H]1NCCOc2ccccc2/C=C/CNC(=O)[C@H](Cc2cccc(Cl)c2)NC(=O)C2(CCCC2)NC1=O
100 to 1000 | CCC(C)C1NCCOc2ccccc2/C=C/CNC(=O)C(COCc2ccccc2)NC(=O)C(C)(C)NC1=O (stereo not shown)
10 to 100 | C[C@@H]1C(=O)N[C@H](Cc2ccc(F)cc2)C(=O)NCC2CC2c2ccccc2OCCN[C@@H](C2CC2)C(=O)N1C (stereo partly shown)
10 to 100 | CCC(C)C1NCCOc2ccccc2/C=C/CNC(=O)C(Cc2cccc(Cl)c2)NC(=O)C2(CCCC2)NC1=O (stereo not shown)
10 to 100 | CCC(C)[C@@H]1NCCOc2ccccc2/C=C/CNC(=O)[C@H](Cc2cc(F)cc(F)c2)NC(=O)C2(CCCC2)NC1=O (stereo partly shown)
100 to 1000 | CCC(C)C1NCCCc2ccccc2C=CCNC(=O)C(Cc2cccc(Cl)c2)NC(=O)C2(CCCC2)NC1=O (stereo not shown)

Same assay, conditions: Table 3D

Ki [nM] | Structure (SMILES)
> 10000 | CCC(C)C1NCCOc2ccccc2/C=C/CNC(=O)C(CO)NC(=O)C2(CCCC2)NC1=O (stereo not shown)
> 10000 | CC[C@H](C)[C@@H]1NCCOc2ccccc2/C=C/CNC(=O)[C@H](COC)NC(=O)C2(CCCC2)NC1=O
> 10000 | CCC(C)C1NCCOc2ccccc2/C=C/CNC(=O)C(COC)NC(=O)C2(CCCC2)NC1=O (stereo not shown)
1000 to 10000 | C[C@@H]1C(=O)N[C@H](Cc2ccc(F)cc2)C(=O)NCCOCCOCCN[C@@H](C2CC2)C(=O)N1C
> 10000 | CC[C@H](C)[C@@H]1NCCOc2ccccc2/C=C/CNC(=O)[C@H](CO)NC(=O)C2(CCCC2)NC1=O
> 10000 | CC(C)CC1NCCOc2ccccc2/C=C/CNC(=O)C(Cc2c[nH]cn2)NC(=O)C2(CCCC2)NC1=O (stereo not shown)
1000 to 10000 | CC1C(=O)NC(Cc2ccc(F)cc2)C(=O)NCCOCCOCCNC(C2CC2)C(=O)N1C (stereo not shown)

Same assay, conditions: Table 3E

Ki [nM] | Structure (SMILES)
1000 to 10000 | CCC(C)C1NCCOc2ccccc2CCCNC(=O)C(Cc2ccccc2)N2CCC(C2=O)N(C)C1=O (stereo not shown)

Same assay, conditions: Table 4; TFA salts unless otherwise noted

Ki [nM] | Structure (SMILES)
100 to 1000 | CCC(C)C1NCCCCCCCCNC(=O)C(Cc2ccccc2)NC(=O)C(C)N(C)C1=O (stereo not shown)
10 to 100 | CC[C@H](C)[C@@H]1NCCCc2ccccc2/C=C/CNC(=O)[C@H](Cc2cccc(Cl)c2)NC(=O)C2(CCCC2)NC1=O

Same assay, conditions: Table 4; TFA salts unless otherwise noted; tested form: formate

Ki [nM] | Structure (SMILES)
10 to 100 | CC(C)C[C@@H]1NCCOc2ccccc2CCCNC(=O)[C@H](Cc2ccccc2)NC(=O)C2(CCCC2)NC1=O

Same assay, conditions: linear (not cyclized) analogues of compounds 10 and 133

binding potency | Structure (SMILES)
lack of binding potency | CC(=O)N(CCOc1ccccc1CCCN)[C@@H](CC(C)C)C(=O)NC1(C(=O)N[C@@H](Cc2ccccc2)C(N)=O)CCCC1
lack of binding potency | CCC[C@@H](C(=O)N(C)CC(=O)N[C@H](Cc1ccccc1)C(N)=O)N(CCOc1ccccc1CCCN)C(C)=O

Same assay, conditions: read-out: Binding Activity at the Human Ghrelin Receptor (Ki); [125I]-ghrelin displacement, GHS-R/HEK 293 membranes; class symbols

Ki [nM] | Structure (SMILES)
> 1000 | CC(C)C[C@@H]1NCCOc2ccccc2/C=C/CNC(=O)[C@H](Cc2ccccn2)NC(=O)C2(CCCC2)NC1=O
10 to 100 | CCC(C)C1NCCOc2ccccc2/C=C/CNC(=O)C(Cc2ccccc2)NC(=O)C2(CCCC2)NC1=O (stereo not shown)
1000 to 10000 | CCC(C)C1NCCOc2ccccc2CCCNC(=O)C(Cc2ccccc2)N2CCC(C2=O)N(C)C1=O (stereo not shown)
> 10000 | CCC(C)[C@@H]1NCCCCCCCNC(=O)[C@@H](Cc2ccccc2)NC(=O)[C@@H](C)N(C)C1=O (stereo partly shown)
> 10000 | CC(C)CC1NCCOc2ccccc2/C=C/CNC(=O)C(Cc2ccncc2)NC(=O)C2(CCCC2)NC1=O (stereo not shown)
> 10000 | CCC(C)C1NCCCCCCCNC(=O)C(Cc2ccccc2)NC(=O)C(C)N(C)C1=O (stereo not shown)
> 1000 | CC(C)C[C@@H]1NCCOc2ccccc2/C=C/CNC(=O)[C@H](Cc2cccnc2)NC(=O)C2(CCCC2)NC1=O
100 to 1000 | CCC(C)[C@@H]1NCCOc2ccccc2CCCNC(=O)[C@@H](Cc2ccccc2)NC(=O)[C@H](CO)N(C)C1=O (stereo partly shown)
> 1000 | CC(C)CC1NCCOc2ccccc2/C=C/CNC(=O)C(Cc2cccnc2)NC(=O)C2(CCCC2)NC1=O (stereo not shown)
> 10000 | CC(C)C[C@@H]1NCCOc2ccccc2/C=C/CNC(=O)[C@H](Cc2ccncc2)NC(=O)C2(CCCC2)NC1=O
> 1000 | CC(C)CC1NCCOc2ccccc2/C=C/CNC(=O)C(Cc2ccccn2)NC(=O)C2(CCCC2)NC1=O (stereo not shown)
100 to 1000 | CCC(C)C1NCCOc2ccccc2CCCNC(=O)C(Cc2ccccc2)NC(=O)C(CO)N(C)C1=O (stereo not shown)
10 to 100 | CCC(C)[C@@H]1NCCOc2ccccc2/C=C/CNC(=O)[C@H](Cc2ccccc2)NC(=O)C2(CCCC2)NC1=O (stereo partly shown)

Biological target: human ghrelin receptor (hGHS-R1a) (Homo sapiens, UniProt Q92847)
Assay: not given
Format: cell-based
Conditions: Table 4; functional (agonist) activity; TFA salts unless otherwise noted

EC50 [nM] | Structure (SMILES)
100 to 1000 | CCC(C)C1NCCCCCCCCNC(=O)C(Cc2ccccc2)NC(=O)C(C)N(C)C1=O (stereo not shown)
1 to 100 | CC[C@H](C)[C@@H]1NCCCc2ccccc2/C=C/CNC(=O)[C@H](Cc2cccc(Cl)c2)NC(=O)C2(CCCC2)NC1=O

Same assay, conditions: Table 4; functional (agonist) activity; TFA salts unless otherwise noted; tested form: formate

EC50 [nM] | Structure (SMILES)
100 to 1000 | CC(C)C[C@@H]1NCCOc2ccccc2CCCNC(=O)[C@H](Cc2ccccc2)NC(=O)C2(CCCC2)NC1=O
